# Measured values reported in US20160017440A1, “Methods Of Classifying Biological Samples For Predicting Response To Tyrosine Kinase Inhibitor Treatment” (ABBOTT MOLECULAR INC., priority 2009, published 2016).
# Test system: NSCLC patients
# Assay: Outcome of gefitinib-treated NSCLC patients classified by FISH copy number profile (PIK3CA, PTEN, cen7)
# Type: in vivo, human
# [1] = 22 patients with high PIK3CA copy number, loss of PTEN and low cen7 copy number, full study group
# [2] = 37 patients without EGFR mutation, classifier profile (high PIK3CA, PTEN loss, low cen7)
# [3] = 37 patients without EGFR mutation, other profiles
# [4] = the other 50 patients, full study group
smiles,measurement,setting,value
COc1cc2ncnc(Nc3ccc(F)c(Cl)c3)c2cc1OCCCN1CCOCC1 [gefitinib],median OS,"22 patients (31%) with tumors with high PIK3CA copy number, loss of PTEN and low cen7 copy number, full study group (72 specimens)",132 days
same,OR (objective response),[1],0%
same,median PFS,[1],62 days
same,median OS,[2],128 days
same,median PFS,[2],62 days
same,median OS,[3],380 days
same,median PFS,[3],102 days
same,median OS,"the other 50 patients (any other copy number profile), full study group",373 days
same,OR (objective response),[4],22%
same,median PFS,[4],128 days
same,effectiveness in tumors (conclusion in words),"tumors with relatively high PTEN loss and PIK3CA gain, and low levels of EGFR or cen7, full study group or subgroup without EGFR mutations",relatively ineffective
